Values quoted from earlier work as cited in article PMC12345137 (mBio, 2025).

Chains of the proteins cited; added tags and fusions are not shown.
UniProt O07911, entry or part of it: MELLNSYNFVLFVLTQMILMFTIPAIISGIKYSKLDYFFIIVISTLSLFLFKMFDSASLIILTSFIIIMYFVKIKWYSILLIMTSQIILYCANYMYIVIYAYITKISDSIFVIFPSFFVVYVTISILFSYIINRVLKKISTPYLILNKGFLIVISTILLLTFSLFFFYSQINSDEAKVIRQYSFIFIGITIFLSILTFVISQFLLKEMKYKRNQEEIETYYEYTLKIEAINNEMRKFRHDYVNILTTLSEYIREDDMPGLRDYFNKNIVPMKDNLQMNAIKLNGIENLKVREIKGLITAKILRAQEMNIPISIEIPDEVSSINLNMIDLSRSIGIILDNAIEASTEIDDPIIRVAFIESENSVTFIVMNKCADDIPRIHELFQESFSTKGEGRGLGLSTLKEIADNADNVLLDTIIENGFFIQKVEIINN

Biological target: SA AgrC-I (Staphylococcus aureus, UniProt O07911)
Conditions: 100 nM cognate AIP; ± SEM; -b = no inhibition recorded at the highest AIP concentration tested; determined previously; ref (1); read-out: IC50, SA AgrC-I, b-lactamase assay; cited from earlier work

Compound	IC50 [nM]
S. warneri AIP-I [compound 16]	100 ± 10
S. schleiferi AIP-I [compound 30]	2.8 ± 0.8
S. vitulinus AIP-I [compound 35]	190 ± 15
S. chromogenes AIP-I [compound 27]	15 ± 1
S. hominis AIP-III [compound 12]	134 ± 8
S. haemolyticus AIP-I [compound 15]	340 ± 25

Test system: S. aureus (SA) agr-II
Conditions: fluorescence; ref (17); cited from earlier work

Compound	IC50 [nM]
NCCCC[C@H](N)C(=O)N[C@@H](Cc1ccc(O)cc1)C(=O)N[C@@H](Cc1ccc(O)cc1)C(=O)N1CCC[C@H]1C(=O)N[C@H]1CSC(=O)[C@H](Cc2ccccc2)NC(=O)[C@H](Cc2ccc(O)cc2)NC(=O)CNC(=O)[C@H](Cc2c[nH]c3ccccc23)NC1=O [compound 33, S. simulans AIP-II]	15
